Data set [1] is described as follows: Microsomal stability assay, human. The data set is classed as in vitro ADME. The note with it: 0.1 uM.
The nature of data set [2]: Pharmacokinetic study 1, 4-hr time course. The data set is classed as in vivo, Sprague-Dawley rats. Particulars: rat, 10 mg/kg. From the text: (§1) Two cohorts of Sprague-Dawley rats were used in two independent studies. All animals were fasted overnight before the experiment with free access to water. In study 1, a total of 18 rats were used for a 4 hr time course pharmacokinetic (PK) study. Rats were anesthetized with 3% isoflurane and catheters were implanted into the jugular and/or portal veins for compound administration and/or blood sampling at 1 to 2 days prior to the experiments as previously described. […] Four hours post-dose, rats were deeply anesthetized with isoflurane and blood samples were collected by cardiac puncture. In study 2, a total of 18 rats were used for a 20 min post-dose collection study. […] At 20 min post-dose, rats were deeply anesthetized with isoflurane and blood samples were collected by cardiac puncture. Brains were collected after perfusion with phosphate buffered saline. All plasma samples were immediately separated after collection by centrifugation (11,000 rpm for 3 minutes) and stored at −80°C until analysis. […] Tulobuterol was used as the internal standard. The flow rate was set to 0.45 ml/min. Column temperature was 25°C. […] The injection volume was 20 μl. The mass spectrometer was operated in the positive mode with multiple-reaction monitoring (MRM). […] Mobile phase A consisted of 10 mM ammonium acetate and 0.1% formic acid in LCMS grade water. […]

A short description of data set [3]: Pharmacokinetic study 2, 20-min post-dose collection. The data set is classed as in vivo, Sprague-Dawley rats. Particulars: rat, 10 mg/kg IV or IP.
Description: as §1

This is an account of results in paper PMC5529018, “Discovery of novel brain permeable and G protein-biased beta-1 adrenergic receptor partial agonists for the treatment of neurocognitive disorders” (PLoS ONE, 2017).

Each structure is given as a SMILES string.

On to `COc1ccccc1OCCNC[C@H](O)COc1ccc(O)cc1.COc1ccccc1OCCNC[C@H](O)COc1ccc(O)cc1.O=C(O)/C=C/C(=O)O` [STD-101-D1, (S)-4-(2-hydroxy-3-((2-(2-methoxyphenoxy)ethyl)amino)propoxy)phenol hemifumarate], for which the “reduction after 60 min in human microsomes, in words” value in data set [1] is listed as “almost no reduction”. For the same compound, in data set [2], the “amount detected in the brain at 4 hrs post dose, in words” value is reported as “only a trace”. For the same compound, the “brain concentration relative to EC50 for ADRB1 in vitro” value in data set [3] is given as “up to 148 fold”.
